Measured values taken from US8440639B2, “Combination compositions for reducing intraocular pressure” (Inotek Pharmaceuticals Corporation, priority 2010, dated 2013).

Amino acid sequences for entries named in this document (tags omitted).
UniProt P30542, whole entry: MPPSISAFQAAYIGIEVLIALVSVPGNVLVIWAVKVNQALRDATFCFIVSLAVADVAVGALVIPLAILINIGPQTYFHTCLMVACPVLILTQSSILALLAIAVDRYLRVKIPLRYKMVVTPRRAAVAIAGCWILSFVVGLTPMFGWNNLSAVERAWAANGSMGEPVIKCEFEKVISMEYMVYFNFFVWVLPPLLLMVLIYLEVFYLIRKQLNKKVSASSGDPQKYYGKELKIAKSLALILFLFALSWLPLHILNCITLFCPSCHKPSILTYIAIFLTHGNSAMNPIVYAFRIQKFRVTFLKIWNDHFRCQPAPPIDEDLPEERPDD

Molecular target: A1 receptor (Homo sapiens, UniProt P30542)
Experiment: Adenosine A1 receptor affinity (Ki potency)
Assay type: binding
Text: As used herein, the term “A1 agonist” refers to an A1 agonist that has an affinity to the A1 receptor while simultaneously having a lower affinity for the A2 and A3 adenosine receptors.

## O=[N+]([O-])OC[C@H]1O[C@@H](n2cnc3c(NC4CCCC4)ncnc32)[C@H](O)[C@@H]1O [Compound A, ((2R,3S,4R,5R)-5-(6-(cyclopentylamino)-9H-purin-9-yl)-3,4-dihydroxytetrahydrofuran-2-yl)methyl nitrate]
  Ki: 970 pM
